Test results reported in patent US8822528B2, “Monensin derivatives for the treatment and prevention of protozoal infections” (Merial Limited, priority 2010, dated 2014).

Test: Solubility of monensin sodium salt in various solvents (weight difference after filtration)
Type: physicochemical
Details: for Solubility: ambient temperature; for Solubility (grade): grade symbols, key not given
Description: Monensin sodium salt (200 g) was mixed with 10 mL of solvent. The solution was stirred for 2 hours and then filtered through sintered glass. The precipitate was then dried and weighed. The difference between the weight of the product initially introduced and the one remaining on the sintered disk after filtration indicated the solubility of the product at ambient temperature in a 10 mL volume.

Monensin sodium salt
Solubility (solvent Acetone): 15.1 mg/mL
Solubility (solvent Acetonitrile): 7.0 mg/mL
Solubility (solvent Chloroform): 20 mg/mL
Solubility (grade) (solvent Chloroform): + + +
Solubility (solvent DMF): 18.7 mg/mL
Solubility (grade) (solvent DMF): + +
Solubility (solvent DMSO): 1.1 mg/mL
Solubility (grade) (solvent DMSO): - - -
Solubility (solvent Ethyl acetate): 11.9 mg/mL
Solubility (solvent H2O): 3.3 mg/mL
Solubility (grade) (solvent H2O): - -
Solubility (solvent Methanol): 20 mg/mL
Solubility (grade) (solvent Methanol): + + +
Solubility (solvent THF): 20 mg/mL
Solubility (grade) (solvent THF): + + +
Solubility (solvent Toluene): 20 mg/mL
Solubility (grade) (solvent Toluene): + + +
